Measured values reported in ChEMBL document CHEMBL3259517, “Synthesis and evaluation of phosphorus containing, specific CDK9/CycT1 inhibitors” (J Med Chem, 2014).

Assays:
MT4 [1] = experiment: Cytotoxicity against human MT4 cells assessed as cell viability at 2500 nM after 7 days by MTT assay relative to control; format: cell-based; details: mt4, 168 h, 2.5 µM
MT4 [2] = experiment: Cytotoxicity against human MT4 cells assessed as cell viability at 1250 nM after 7 days by MTT assay relative to control; format: cell-based; details: mt4, 168 h, 1.25 µM

Compound | Activity (MT4 [1]) [%] | Activity (MT4 [2]) [%]
CCOP(=O)(CC)Nc1cc(Nc2cc(-c3ccccc3OC)ncn2)ccc1C (stereo not drawn) | 29 | 96
CCOP(=O)(CC)Oc1cc(Nc2cc(-c3cccc(N)c3)ncn2)ccc1C (stereo not drawn) | 76 | 72
CCOP(=O)(CC)Oc1cc(Nc2cc(-c3ccccc3OC)ncn2)ccc1C (stereo not drawn) | 108 | 78
CCP(=O)(O)Oc1cc(Nc2cc(-c3ccccc3OC)ncn2)ccc1C | 74 | 78
